Values of other authors as cited in article PMC11768433 (Viruses, 2024).
Read-outs that look alike come from different tables or passages of the source.

Key:
HSV-1 [1] = tested on: HSV-1; set-up: method as in Ref.35216177; details: HSV-1 replication, Vero cells; ref Ref.35216177
HSV-2 = tested on: HSV-2; set-up: method as in Ref.35216177; details: HSV-2 replication, Vero cells; ref Ref.35216177
HPIV-3 = tested on: HPIV-3; set-up: method as in Ref.35216177; details: HPIV-3 replication, Vero cells; ref Ref.35216177
HCoV-OC43 = tested on: HCoV-OC43; set-up: method as in Ref.35216177; details: HCoV-OC43 replication, Vero cells; ref Ref.35216177
SIV(239,PBJ) [2] = tested on: SIV(239,PBJ); set-up: method as in Ref.30089693; details: TZM-bl, ref Ref.30089693
HEK293T cell = tested on: HEK293T cell; set-up: method as in Ref.30089693; details: ref Ref.30089693
HCoV-229E [3] = tested on: HCoV-229E; set-up: method as in Ref.35216177; details: HCoV-229E replication, Vero cells; ref Ref.35216177
SIV(239,PBJ) [4] = tested on: SIV(239,PBJ); set-up: method as in Ref.30867304; details: TZM-bl, range, ref Ref.30867304
[5] = tested on: Human embryonic kidney HEK293T cells; set-up: method as in Ref.30867304; details: ref Ref.30867304
hepatitis C virus(HCVpp) [6] = tested on: hepatitis C virus(HCVpp); set-up: method as in Ref.20156485; details: Huh-7 human hepatoma cells, ref Ref.20156485
hepatitis C virus(HCVpp) [7] = tested on: hepatitis C virus(HCVpp); set-up: method as in Ref.20156485; details: primary human hepatocytes, ref Ref.20156485
MT-4 cell = tested on: MT-4 cell; set-up: method as in Ref.30089693; details: ref Ref.30089693
HSV-1 [8] = tested on: HSV-1; set-up: method as in Ref.35055066; details: ref Ref.35055066
[9] = tested on: Human parainfluenza virus type-2 (HPIV2); set-up: method as in Ref.35055066; details: ref Ref.35055066
HCoV-229E [10] = tested on: HCoV-229E; set-up: method as in Ref.35055066; details: virus pre-treatment, ref Ref.35055066
[11] = tested on: Human parainfluenza viruse 3(HPIV 3); set-up: method as in Ref.28344321; details: HPIV 3 infection, Vero cells; ref Ref.28344321

FVPWFSKFlXRIL [DRAVPe00380, DRAVP database entry, TL peptide]
IC50 (HSV-1 [1]): 7.73 µM | IC50 (HSV-2): 9.61 µM | IC50 (HPIV-3): > 50 µM | IC90 (HPIV-3): > 50 µM | IC50 (HCoV-OC43): 11.3 µM

YTSLIEELIKKSEEQQKKNEEELKKLEX [DRAVPe00783]
IC50 (SIV(239,PBJ) [2]): 0.06 nM | CC50 (HEK293T cell): 166.77 µM

FVPWFSKFlWRIL [DRAVPe00385, DRAVP database entry, TL peptide]
IC50 (HSV-1 [1]): 3.01 µM | IC50 (HSV-2): 0.77 µM

FVPWFSKFlGRIL [DRAVPe00377, DRAVP database entry, TL peptide]
IC50 (HSV-1 [1]): 9.99 µM | IC50 (HSV-2): 8.86 µM | IC50 (HCoV-229E [3]): 7.76 µM

YTSLIHSLIEESQNQQEKNEQELLELDX [DRAVPe00782]
CC50 (HEK293T cell): 408 µM

FVPWFSKFlXRILGGC [DRAVPe00390, DRAVP database entry, TL peptide]
IC50 (HSV-1 [1]): 9.54 µM

WEQKIEELLKKAEEQQKKNEEELKKLEKX [DRAVPe00787]
IC50 (SIV(239,PBJ) [4]): 4 to 6 pM | CC50 [5]: 25.31 µM

VSFAIKWEYVLLLFLL [DRAVPe01483]
EC50 (hepatitis C virus(HCVpp) [6]): 0.3 ± 0.4 µM | EC50 (hepatitis C virus(HCVpp) [7]): 0.3 µM

IEELLKKAEEQQKKNEEELKKLEX [DRAVPe00660]
CC50 (MT-4 cell): 213.4 µM | CC50 (HEK293T cell): 208.43 µM

FVPWFSKFlpRIL [DRAVPe00379, DRAVP database entry, TL peptide]
IC50 (HSV-1 [1]): > 50 µM | IC90 (HSV-1 [1]): > 50 µM | IC50 (HSV-2): > 50 µM | IC90 (HSV-2): > 50 µM

FVPWFSKFlXRILC [DRAVPe00389, DRAVP database entry, TL peptide]
IC50 (HSV-1 [1]): 6.4 µM

FVPWFSKFlkRIL [DRAVPe00384, DRAVP database entry, TL peptide]
IC50 (HSV-1 [1]): 3.53 µM | IC50 (HSV-2): 2.8 µM

AIGSILGALAKGLPTLISWIKNR [DRAVPe00469, DRAVP database peptide AR-23]
IC50 (HSV-1 [8]; HSV-1, co-treatment: simultaneous addition of AR-23 and virus to the cells): 0.78 µM | IC50 (HSV-1 [8]; HSV-1, inhibition of viral attachment on the host cell membrane): 6.25 µM | IC50 (HSV-1 [8]; HSV-1, inhibition the entry of virus): 3.12 µM | IC50 (HSV-1 [8]; HSV-1, virus pre-treatment: virus incubated with the peptide): 0.39 µM | IC50 ([9]; HPIV2, co-treatment): 6.25 µM | IC50 ([9]; HPIV2, virus pre-treatment): 3.12 µM | IC50 (HCoV-229E [10]): 3.12 µM

IEELIKKSEEQQKKNEEELKKLEX [DRAVPe00656]
CC50 (HEK293T cell): 140.43 µM

FVQWFSKFLGRIL [DRAVPe00376, DRAVP database entry, TL peptide]
IC50 (HSV-1 [1]): 8.55 µM | IC50 (HSV-2): 8.28 µM

VALDPIDIAnti-SIVLNKAKSDLEESKEWIRRSNGKLDSIGSGSGX [DRAVPe01793]
IC50 [11]: 0.03 ± 0.04 nM

FVPWFSKFlwRIL [DRAVPe00386, DRAVP database entry, TL peptide]
IC50 (HSV-1 [1]): 1.86 µM | IC50 (HSV-2): 0.58 µM

FVPWFSKFlPRIL [DRAVPe00378, DRAVP database entry, TL peptide]
IC50 (HSV-1 [1]): 7.7 µM | IC50 (HSV-2): 9.83 µM

LEANIEELLKKAEEQQKKNEEELKKLEX [DRAVPe00784]
IC50 (SIV(239,PBJ) [2]): 0.03 to 0.06 nM | CC50 (MT-4 cell): 135.07 µM | CC50 (HEK293T cell): 130.07 µM

FVPWFSKFlXRIL [DRAVPe00396, DRAVP database entry, TL peptide]
IC50 (HSV-1 [1]): 3.13 µM

FVPWFSKFlxRIL [DRAVPe00382, DRAVP database entry, TL peptide]
IC50 (HSV-1 [1]): 3.65 µM | IC50 (HSV-2): 3.13 µM | IC50 (HPIV-3): > 50 µM | IC90 (HPIV-3): > 50 µM

VALDPIDIAnti-SIVLNKAKSDLEESKEWIRRSNGKLDSIGSGSGC [DRAVPe01791]
IC50 [11]: 1 nM

CFVPWFSKFlXRIL [DRAVPe00391, DRAVP database entry, TL peptide]
IC50 (HSV-1 [1]): 0.89 µM

WEQKIEELLKKAEEQQKKNEEELKKLEX [DRAVPe00785]
IC50 (SIV(239,PBJ) [2]): 0.01 to 0.04 nM | CC50 (MT-4 cell): 94.06 µM | CC50 (HEK293T cell): 88.86 µM

CGGFVPWFSKFlXRIL [DRAVPe00392, DRAVP database entry, TL peptide]
IC50 (HSV-1 [1]): 2.32 µM

FVPWFSKFlKRIL [DRAVPe00383, DRAVP database entry, TL peptide]
IC50 (HSV-1 [1]): 2.49 µM | IC50 (HSV-2): 1 µM
